Assays:
[1] = Decarboxylation of quinolinate-containing culture solution to nicotinic acid; details: converted from quinolinate at about 135 degrees, about 0.2 MPa, about 3 hours, pH 2
Excerpt: To identify the ability to produce nicotinic acid of the quinolinate-producing strains into which nadB variants were introduced, the yields of quinolinate in Table 10 were used. The production method of nicotinic acid used herein was decarboxylation of the quinolinate-including culture solution under high-temperature and high-pressure conditions based on the disclosure of Korean Patent No. 10-1223904, to convert quinolinate to nicotinic acid. To remove cells from the quinolinate-containing culture solution, centrifugation was performed at about 3000 rpm to about 4000 rpm for about 10 minutes to about 30 minutes. The quinolinate-containing supernatant resulting from the centrifugation was separated and used as a sample for decarboxylation reaction.
The decarboxylation reaction was conducted at about 135[…] at about 0.2 MPa for about 3 hours. An aqueous solution of quinolinate (a standard product of Sigma-Aldrich Co.) in deionized water was used as a control group. Each samples of the aqueous solutions of quinolinate was titrated with sodium hydroxide, ammonia water, hydrochloric acid, or sulfuric acid, specifically the conversion of quinolinate into nicotinic acid took place at pH of 2. […]

[2] = tested on: W3110-ΔnadC; assay: Quinolinate titer assay with nicotinic acid (NA) added to the culture medium, HPLC; format: cell-based, E. coli; details: for yield of quinolinate (relative): culture medium contains nicotinic acid 5 uM or greater; for Quinolinate: culture solution used for decarboxylation (values of Table 10, NA 0 uM)
Experimental: To compare the ability to produce quinolinate in the wild type nadB gene and nadB gene variants with respect to NAD concentration, a quinolinate titer assay was conducted. After the quinolinate-producing strain (W3110-ΔnadC) obtained in <2-1> of Example 2 was transformed with the plasmidpPro-nadB67-pCJq1-nadA constructed in <2-2> of Example 2, and each of the 18 types of nadB67 variants constructed in <2-2-1> of Example 2 via CaCl2 method. […] To identify the NAD feedback resistance of the nadB67 variants, nicotinic acid (NA) was added to the culture medium at different concentrations, followed by comparison of the produced quantities of quinolinate.
The quantity of quinolinate (quinolinic acid, QA) in each of the culture solutions was analyzed by high performance liquid chromatography (HPLC).
Referring to Table 11, the yield of quinolinate was less than 50% when the pPro-nadB-pCJ-nadA plasmid including the wild type nadB gene was used, and the culture medium contains nicotinic acid, over 5 uM or greater. Whereas the yield of quinolinate was 70% or greater when the pPro-nadB67-pCJ-nadA plasmid and 302nd variants recombinant plasmids including the nadB gene variant were used. W3110-ΔnadC strain is an NAD auxotroph that requires supply of external NAD for growth. W3110-ΔnadC strain is unable to directly accept NAD, and uses heterogenous nicotinic acid (NA) or nicotinamide (Nm) to produce NAD. When an amount of intracellular NAD is 1 mM or greater, the nadB gene is feedback-regulated to maintain the amount of intracellular NAD constant. Accordingly, the production of QA may be limited by the nadB gene that is feedback-regulated. Adding NA to a culture medium means an increase of NAD in a strain. Accordingly, the production quantities of QA were compared between the strains with the addition of NA to the culture medium at different concentrations to identify a degree of feedback regulation in the nadB gene variants with respect to NAD concentration.

[3] = NA 0 uM (100% basis), strain W3110-ΔnadC

In the case of “pPro-nadB67-pCJ-nadA: recombinant vector with nadB variant (Lys302Arg) and wild nadA gene, SEQ ID NO: 28”, the Nicotinic acid [1] is reported as 3324 mg/L, the “Relative yield of quinolinate, Relative Percentage” value [2, 3] is reported as 100% and the QA production quantity ([2]; NA 0 uM, strain W3110-ΔnadC) is reported as 4553 mg/L. The “Relative yield of quinolinate, Relative Percentage” value ([2]; NA 5 uM, relative to NA 0 uM) was 85%, the QA production quantity ([2]; NA 5 uM, strain W3110-ΔnadC) was 3860 mg/L and the “Relative yield of quinolinate, Relative Percentage” value ([2]; NA 10 uM, relative to NA 0 uM) was 71%. The QA production quantity ([2]; NA 10 uM, strain W3110-ΔnadC) was 3251 mg/L, the “yield of quinolinate (relative)” value [2] was at least 70% and the Quinolinate [2] was 4553 mg/L.
In the case of “pPro-nadB-pCJ-nadA: recombinant vector of 5.9 kb with wild type nadB (pPro promoter) and nadA (pCJ1 promoter), SEQ ID NO: 27 [reference compound]”, the Nicotinic acid [1] is reported as 2555 mg/L, the “Relative yield of quinolinate, Relative Percentage” value [2, 3] is reported as 100% and the QA production quantity ([2]; NA 0 uM, strain W3110-ΔnadC) is reported as 3500 mg/L. For the same substance, the “Relative yield of quinolinate, Relative Percentage” value ([2]; NA 5 uM, relative to NA 0 uM) was 46%, the QA production quantity ([2]; NA 5 uM, strain W3110-ΔnadC) was 1600 mg/L and the “Relative yield of quinolinate, Relative Percentage” value ([2]; NA 10 uM, relative to NA 0 uM) was 20%. For the same substance, the QA production quantity ([2]; NA 10 uM, strain W3110-ΔnadC) was 700 mg/L, the “yield of quinolinate (relative)” value [2] was “less than 50%” and the Quinolinate [2] was 3500 mg/L.

From patent US9290743B2, “L-aspartate oxidase variant and a method for producing quinolinate or nicotinic acid using the same” (CJ CHEILJEDANG CORP., priority 2013, dated 2016)
